# Results as given in ChEMBL document CHEMBL5344417.
# Target: T1, Retinoic acid receptor RXR-alpha (Homo sapiens) (UniProt P19793)
# T1 sequence (whole entry): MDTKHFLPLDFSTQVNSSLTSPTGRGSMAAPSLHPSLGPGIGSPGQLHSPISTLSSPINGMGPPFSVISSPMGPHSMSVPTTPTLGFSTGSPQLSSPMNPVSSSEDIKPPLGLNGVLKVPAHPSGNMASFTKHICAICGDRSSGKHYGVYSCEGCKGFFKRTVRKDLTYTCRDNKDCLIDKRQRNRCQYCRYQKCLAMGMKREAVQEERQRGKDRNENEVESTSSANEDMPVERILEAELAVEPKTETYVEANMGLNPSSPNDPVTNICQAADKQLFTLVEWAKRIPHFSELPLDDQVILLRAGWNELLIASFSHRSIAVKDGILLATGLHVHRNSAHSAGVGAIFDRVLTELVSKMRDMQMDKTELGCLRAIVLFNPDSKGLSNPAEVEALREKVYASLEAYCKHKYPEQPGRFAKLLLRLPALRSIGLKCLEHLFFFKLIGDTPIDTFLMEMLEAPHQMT
# Conditions: filed as agonist
row,SMILES,Tm [°C]
1,C/C=C/C=C/C(O)=C1/C(=O)[C@@]2(C)[C@H]3/C(=C(/O)CC/C=C/C)C(=O)[C@@]4(C)[C@@H]1[C@]1(C)O[C@@]4(O)[C@@]3(C)O[C@@]12O,66.5
2,Cc1cc2c(cc1-c1cc(/C=C/C(=O)O)ccc1O)C(C)(C)CCC2(C)C,73.8
3,C/C=C/C=C/C(O)=C1/C(=O)[C@@]2(C)[C@H]3\C(=C(O)/C=C/C=C/C)C(=O)[C@@]4(C)[C@@H]1[C@]1(C)O[C@@]4(O)[C@@]3(C)O[C@@]12O,66.7
